From PMC8188608 (Chemical Science, 2021)

Amino acid sequences for entries named in this document (tags omitted). A change or cut given only in a name is not applied to a line headed by its entry.
UniProt Q9RUB5: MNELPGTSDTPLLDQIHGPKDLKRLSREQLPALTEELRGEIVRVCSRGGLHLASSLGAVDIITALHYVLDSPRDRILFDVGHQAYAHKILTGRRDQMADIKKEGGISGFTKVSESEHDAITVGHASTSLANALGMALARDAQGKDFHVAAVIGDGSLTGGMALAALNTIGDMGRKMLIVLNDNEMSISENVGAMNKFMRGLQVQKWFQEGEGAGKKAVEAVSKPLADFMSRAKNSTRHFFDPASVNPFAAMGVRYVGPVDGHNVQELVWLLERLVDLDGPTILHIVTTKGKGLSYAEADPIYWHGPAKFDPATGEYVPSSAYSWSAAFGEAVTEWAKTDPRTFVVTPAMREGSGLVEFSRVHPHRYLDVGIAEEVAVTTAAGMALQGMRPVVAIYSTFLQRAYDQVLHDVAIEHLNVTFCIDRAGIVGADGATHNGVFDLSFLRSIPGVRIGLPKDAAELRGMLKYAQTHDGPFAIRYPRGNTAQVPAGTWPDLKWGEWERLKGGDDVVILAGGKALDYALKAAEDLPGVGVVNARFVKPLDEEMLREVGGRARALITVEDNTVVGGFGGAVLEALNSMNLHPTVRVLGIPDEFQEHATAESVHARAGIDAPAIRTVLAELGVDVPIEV

Legend:
drDXPS [1] = target: T1, drDXPS (Deinococcus radiodurans, UniProt Q9RUB5); assay: biochemical; format: binding
drDXPS [2] = target: T1, drDXPS; assay: biochemical

O=C(CCCOc1ccc(Cl)cc1Cl)N/N=C/c1ccc(O)cc1F [Compound 23]
Kd (drDXPS [1]): 160 ± 50 µM | IC50 (drDXPS [2]): 34 µM
